Assay results as given in PMC12422955.

These substances were tested against dNOE1–mScarlet (dimeric NOE1 construct, residues 205-481 with five GCN4 residues) (UniProt Q62609) (assay: FSEC peak shift). Conditions: 10 nM GluA4 mutants with 50 nM dNoe 1-mScarlet; parent: est. 0.43; read off a plot.
“recombinant homomeric GluA4 receptor (C-terminal GFP and Strep tag) (from UniProt P19493) D49A” gave an other: FSEC peak shift of 0.19 min. “recombinant homomeric GluA4 receptor (C-terminal GFP and Strep tag) (from UniProt P19493) H47A” gave an other: FSEC peak shift of 0.27 min. For “recombinant homomeric GluA4 receptor (C-terminal GFP and Strep tag) (from UniProt P19493) N50A”, the other: FSEC peak shift was 0.3 min. Work on “recombinant homomeric GluA4 receptor (C-terminal GFP and Strep tag) (from UniProt P19493) R25A” yielded an other: FSEC peak shift of 0.2 min. In the case of “recombinant homomeric GluA4 receptor (C-terminal GFP and Strep tag) (from UniProt P19493) R69A”, the other: FSEC peak shift is reported as 0.45 min. For “recombinant homomeric GluA4 receptor (C-terminal GFP and Strep tag) (from UniProt P19493) S65A”, the other: FSEC peak shift was 0.42 min. “recombinant homomeric GluA4 receptor (C-terminal GFP and Strep tag) (from UniProt P19493) Y21A” gave an other: FSEC peak shift of 0.26 min.
